# Measurements: patent publication US20150087613A1, “Inhibition of Opioid Antinociceptive Tolerance and Withdrawal in Nociceptive Pain Therapy” (Saint Louis University, priority 2013, published 2015)
# Biological target: T1, A3AR (Mus musculus, UniProt Q61618)
# T1 construct: expressed in transfected cells
# T1 sequence (Q61618 1-319): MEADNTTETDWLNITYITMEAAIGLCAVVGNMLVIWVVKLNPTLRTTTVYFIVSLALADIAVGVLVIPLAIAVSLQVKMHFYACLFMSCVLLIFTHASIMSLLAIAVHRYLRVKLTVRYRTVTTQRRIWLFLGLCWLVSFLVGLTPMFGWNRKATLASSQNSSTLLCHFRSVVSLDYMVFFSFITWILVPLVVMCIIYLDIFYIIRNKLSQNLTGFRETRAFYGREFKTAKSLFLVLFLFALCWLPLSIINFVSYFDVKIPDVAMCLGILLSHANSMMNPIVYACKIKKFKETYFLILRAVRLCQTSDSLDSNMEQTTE
# Test: Radioligand binding, membranes of HEK293 cells stably expressing mA3AR
# Conditions: species m; n 3-4; read-out: affinity (KV nM) A3
smiles,measurement,value
O[C@@H]1[C@H](O)[C@@H]2C[C@@H]2[C@H]1n1cnc2c(NCCc3ccccc3)nc(C#Cc3ccccc3)nc21 [Compound 14],Ki,480 ± 90 nM
